# Test results: US6506876B1, “LTA4 hydrolase inhibitor pharmaceutical compositions and methods of use” (G.D. Searle & Co., priority 1994, dated 2003)
# Columns and labels:
# [1] = tested on: LTB4 production in human whole blood (LTA4 hydrolase); assay: LTB4 production by calcium ionophore stimulated human blood; assay type: cell-based; conditions: Homo sapiens, read-out: Inhibition of Calcium Ionophore-Induced LTB4 Production in Human Blood IC50 HWB
# [2] = target: T1, recombinant human LTA4 hydrolase (rhLTA4H) (Homo sapiens, UniProt P09960); assay: Recombinant human LTA4 hydrolase assay for LTA4 hydrolase inhibitor activity; conditions: Recombinant Human LTA4 Hydrolase Assay IC50 LTA4H
# T1 sequence (P09960 1-611): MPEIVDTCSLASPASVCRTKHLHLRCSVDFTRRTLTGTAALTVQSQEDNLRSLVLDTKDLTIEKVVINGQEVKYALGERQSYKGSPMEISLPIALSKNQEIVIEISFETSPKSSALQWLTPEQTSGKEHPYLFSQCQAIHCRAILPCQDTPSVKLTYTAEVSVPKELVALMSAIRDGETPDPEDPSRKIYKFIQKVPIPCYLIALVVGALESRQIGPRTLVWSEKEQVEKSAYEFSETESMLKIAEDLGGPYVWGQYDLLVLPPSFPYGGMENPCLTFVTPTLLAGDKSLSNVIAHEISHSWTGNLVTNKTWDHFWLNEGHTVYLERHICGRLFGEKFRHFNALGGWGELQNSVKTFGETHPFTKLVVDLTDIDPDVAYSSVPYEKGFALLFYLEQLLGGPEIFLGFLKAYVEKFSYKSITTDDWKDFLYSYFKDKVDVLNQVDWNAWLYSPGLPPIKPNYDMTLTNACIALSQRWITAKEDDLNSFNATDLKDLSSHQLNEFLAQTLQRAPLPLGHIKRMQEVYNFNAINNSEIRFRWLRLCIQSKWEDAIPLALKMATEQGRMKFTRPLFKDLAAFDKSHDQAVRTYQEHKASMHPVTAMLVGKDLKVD
IC50 [1] [nM],Structure (SMILES),IC50 [2] [nM]
336,[O-][n+]1ccc2c(c1)ncn2CCOc1ccc(Cc2ccccc2)cc1 [Example 365],
,CN(CCCOc1ccc(Cc2ccccc2)cc1)CCC(=O)O [Example 434],10
